Results on seven compounds are retold here after PubChem BioAssay AID576 (NMMLSC, 2007).

Only a part is listed here, and it is no random draw. Activity calls are given as the source filed them.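 Rule for the calls: active = fluorescence ratio above 2.44, which is 1 plus 3 SD of all ratios; inconclusive = signal too bright to measure linearly, ratio around 10 or more; inactive = fluorescence ratio below 2.44.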

The test can be described thus: compound autofluorescence on Jurkat cells, primary screen, artefact control for VLA-4 allosteric ligand project, cell-based, flow cytometry (AID 576).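 Note: green fluorescence of cells measured with 488 nm excitation and 530 nm emission; tested at 10 µM compound in the well.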 The following applies: stronger effect = higher value, 1 = vehicle-only cell background. For orientation: Flow cytometry measures light scatter and fluorescence of single cells or particles in a stream.
On to `CCc1nc2c(n1)c1c(non1O)c1c2no[n+]1[O-]`, for which the fluorescence ratio was inactive: 2.

Turning to `O=P(Nc1nccs1)(c1ccccc1)c1ccccc1`, the fluorescence ratio is inactive: 1.08.

As for `Cc1nn(-c2ccccc2)c2c1P(=O)(N1CCOCC1)N(C)C(c1ccccc1)=N2` (configuration not stated), the fluorescence ratio was inactive: 1.1.

Turning to `Clc1n[nH]nc1-c1nn[nH][15n]1`, the fluorescence ratio is inactive: 1.04.

With `CCOP1(=S)c2c(C)nn(CCC#N)c2N=C(c2ccccc2F)N1C` (configuration not stated), the fluorescence ratio was inactive: 0.91.

Turning to `COP1(=S)c2c(C)nn(CCC#N)c2N=C(c2ccc(F)cc2)N1C` (configuration not stated), the fluorescence ratio was inactive: 1.03.

As to `O=C(COc1ccccc1)OC1CN2CCC1CC2` (configuration not stated), the fluorescence ratio is inactive: 1.06.
